Source: patent US7214703B2, “Pyrrolidinohydrochinazolines” (Boehringer Ingelheim International GmbH, priority 2003, dated 2007)
pKi: −log10 of the molar value.

The chains behind the UniProt entries cited, without tags or fusion partners.
UniProt P51677, whole entry: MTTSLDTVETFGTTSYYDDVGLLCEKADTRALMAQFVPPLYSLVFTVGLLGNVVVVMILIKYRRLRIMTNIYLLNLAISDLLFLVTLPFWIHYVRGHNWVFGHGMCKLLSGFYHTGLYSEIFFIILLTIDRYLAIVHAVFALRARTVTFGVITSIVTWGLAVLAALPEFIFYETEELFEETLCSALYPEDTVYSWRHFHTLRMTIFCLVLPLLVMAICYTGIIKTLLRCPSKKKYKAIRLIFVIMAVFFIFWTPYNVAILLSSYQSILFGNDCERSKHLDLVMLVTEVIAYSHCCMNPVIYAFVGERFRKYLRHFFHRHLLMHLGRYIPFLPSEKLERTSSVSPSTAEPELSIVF

Molecular target: human chemokine receptor CCR3 (Homo sapiens, UniProt P51677)
Experiment: CCR3 receptor binding assay (SPA, 125I-eotaxin-1, membranes of hCCR3 transfected K562 cells)
Conditions: read-out: Affinity (Ki-value); CCR3-Receptor Binding Protocol, radioligand 125I-eotaxin-1

Row | pKi | Structure (SMILES)
1 | 5.00 to 6.00 | N=c1c2ccccc2nc2n1C(C(N)=O)CC2=Cc1ccccc1Br (stereo not shown)
2 | 6.00 to 7.00 | COC(=O)C1CC(=Cc2ccccc2Br)c2nc3ccccc3c(=N)n21 (stereo not shown)
3 | 6.00 to 7.00 | CCC1CC(=Cc2ccccc2Cl)C2=Nc3ccccc3CN21 (stereo not shown)
4 | 5.00 to 6.00 | Fc1ccc(C2CC(=Cc3ccccc3Br)C3=Nc4ccccc4CN32)cc1 (stereo not shown)
5 | 6.00 to 7.00 | CN=c1c2ccccc2nc2n1CCC2=Cc1ccccc1Br
6 | 6.00 to 7.00 | N=c1c2c(F)cccc2nc2n1CCC2=Cc1ccccc1Br
7 | 6.00 to 7.00 | Cc1cccc2nc3n(c(=N)c12)CCC3=Cc1ccccc1Br
8 | 6.00 to 7.00 | N=c1c2c(Cl)cccc2nc2n1CCC2=Cc1ccccc1Br
9 | 6.00 to 7.00 | CCCCC1CC(=Cc2ccccc2Br)C2=Nc3ccccc3CN21 (stereo not shown)
10 | 5.00 to 6.00 | CC(C)(C)c1cc2c(cc1Br)CN1CCC(=Cc3ccccc3Cl)C1=N2
11 | 5.00 to 6.00 | CC(C)(C)c1csc2nc3n(c(=N)c12)CCC3=Cc1ccccc1Br
12 | 6.00 to 7.00 | N=c1c2c3c(sc2nc2n1CCC2=Cc1ccccc1Br)CCCC3
13 | 5.00 to 6.00 | N#CN=c1c2ccccc2nc2n1CCC2=Cc1ccccc1Br
